Measurements as given in patent publication US20250275988A1, “FORMULATION FOR TREATING URINARY SYSTEM DISORDERS” (WATERSHED MEDICAL, INC., priority 2022, published 2025).

Experiment: density and max drug loading of antimicrobial agents considered for carrier particles
Assay type: physicochemical
Conditions: Table 7

Substance: Cefoperazone-sulbactam
- Density: 1.8 g/mL
